Consider 1 compound from patent US10543227B2, “Hair growth composition” (RIKEN, priority 2015, dated 2020).

For the data set the following is noted: mouse, in vivo. As to the method: Each test drug was applied to hair-shaved back sites (in an amount of 200 μL per site) of 5-6 animals per group, daily at a frequency of once a day. At 10 minutes and 30 minutes after the application on Day 20, average body surface temperature (° C.) was measured. […] Body surface temperature (° C.) was measured by photographing a hair-shaved site and its periphery using an infrared thermography camera (Thermoshot F30S (NEC/Avio, Tokyo, Japan)). The average body surface temperature per area was calculated using InfRec Analyzer NS9500 Standard (NEC/Avio, Tokyo, Japan).
These animals were subjected to drawing blood from the hearts on the final week for biochemical examination. Each blood was allowed to stand still on ice for 30 minutes and centrifuged twice at 10,000 rpm for 15 minutes (at 4° C.). The supernatants (i.e., sera) were transferred to new containers and stored in a freezer (at −80° C.). The sera were analyzed using a clinical chemistry analyzer for animal (FUJI DRI-CHEM 3500V) and special slides to obtain the values of [GPT (glutamate-pyruvate transaminase), GOT (glutamate oxaloacetate transaminase), GGT (γ-glutamyl transferase), LDH (lactate dehydrogenase), CHE (cholinesterase), CPK (creatine phosphokinase), ALB (albumin), TP (total protein), TCHO (total cholesterol), and TG (triglyceride)].

On to `Nc1cc(N2CCCCC2)nc(N)[n+]1[O-]` [Minoxidil, minoxidil, reference compound], for which the “GPT (ALT)” value is 22.8 ± 4.3 U/l.
